Data reported in US9682960B2 (priority 2013, dated 2017).
Where “and” joins values, the source holds several entries; their conditions need not be identical. Identical values can stand only once. Like-named read-outs stand apart in the source and are kept apart here.

Tested on: castrated (CX) immature male rats bearing a DHT implant
Conditions: for CX + DHT Antagonistic activity % Inhibition Bulbo / CX + DHT Antagonistic activity % Inhibition SV / CX + DHT Antagonistic activity % Inhibition Prostate: 7 days; for CX + DHT Antagonistic activity % Inhibition Bulbo: bulbocavernosus muscles weight; for CX + DHT Antagonistic activity % Inhibition SV: seminal vesicles weight; for CX + DHT Antagonistic activity % Inhibition Prostate: ventral prostate weight

| SMILES | CX + DHT Antagonistic activity % Inhibition Bulbo (0.5 mg/rat/po) | CX + DHT Antagonistic activity % Inhibition SV (0.5 mg/rat/po) | CX + DHT Antagonistic activity % Inhibition Prostate (0.5 mg/rat/po) | also measured |
| --- | --- | --- | --- | --- |
| Cc1c(N2C(=O)N(CCCOc3ccc(-c4ccncc4)cc3Cl)C(C)(C)C2=O)ccc(C#N)c1Cl [EM-9251] | −46% | 26% | 45% | – |
| CC1(C)C(=O)N(c2ccc(C#N)c(C(F)(F)F)c2)C(=S)N1CCCOc1ccc(-c2ccncc2)c(Cl)c1 [EM-8888] | 57% | 81% | 57% | – |
| CC1(C)C(=O)N(c2ccc(C#N)c(C(F)(F)F)c2)C(=O)N1CCCOc1ccc(-c2ccncc2)c(C(F)(F)F)c1 [EM-9089] | 77% | 89% | 56% | – |
| Cc1ccc(-c2ccc(OCCCN3C(=S)N(c4ccc(C#N)c(C(F)(F)F)c4)C(=O)C3(C)C)cc2)cn1 [EM-8908] | 48% | 73% | 55% | – |
| CC1(C)C(=O)N(c2ccc(C#N)c(Cl)c2)C(=O)N1CCCOc1ccc(-c2ccncc2)cc1Cl [EM-9150] | 67% | 92% | 55% and 55 ± 5% | CX + DHT Antagonistic activity % Inhibition Prostate (0.1 mg/rat/po): 30 ± 7%; antagonistic activity (in words) (immature castrated rats supplemented with DHT, 7 days oral): comparable to bicalutamide and flutamide |
| Cc1c(N2C(=O)N(CCCOc3ccc(-c4ccncc4)c(Cl)c3)C(C)(C)C2=O)ccc(C#N)c1Cl [EM-9290] | −75% | 47% | 41% | – |
| CC1(C)C(=O)N(c2ccc(C#N)c(C(F)(F)F)c2)C(=S)N1CCCCOc1ccc(-c2cccnc2)cc1 [EM-9070] | 55% | 83% | 52% | – |
| Cc1c(N2C(=O)N(CCCOc3ccc(-c4cc[n+]([O-])cc4F)cc3)C(C)(C)C2=O)ccc(C#N)c1Cl [EM-9318] | – | – | – | CX + DHT Antagonistic activity % Inhibition Bulbo (0.1 mg/rat po): −44 ± 2 (n = 2, 0.1 mg/rat) %; CX + DHT Antagonistic activity % Inhibition SV (0.1 mg/rat po): 51 ± 13 (n = 2, 0.1 mg/rat) %; CX + DHT Antagonistic activity % Inhibition Prostate (0.1 mg/rat/po): 30 ± 5 (n = 2, 0.1 mg/rat) % |
| Cc1c(N2C(=O)C(C)(C)N(CCCOc3ccc4ncccc4c3)C2=S)ccc(C#N)c1Cl [EM-8728] | 0% | 0% | 11% | – |
| CC1(C)C(=O)N(c2ccc(C#N)c(Cl)c2)C(=S)N1CCCOc1ccc(-c2ccncc2)c(F)c1 [EM-9037] | 61% | 89% | 71% | – |
| Cc1c(N2C(=O)N(CCCOc3ccc(-c4cc[n+]([O-])cc4)c(F)c3)C(C)(C)C2=O)ccc(C#N)c1F [EM-9208] | 76% | 88% | 52% | – |
| Cc1c(N2C(=O)N(CCCOc3ccc4ccc[n+]([O-])c4c3)C(C)(C)C2=O)ccc(C#N)c1Cl [EM-9302] | – | – | – | CX + DHT Antagonistic activity % Inhibition Bulbo (0.1 mg/rat po): −16 (0.1 mg/ rat) %; CX + DHT Antagonistic activity % Inhibition SV (0.1 mg/rat po): 10 (0.1 mg/ rat) %; CX + DHT Antagonistic activity % Inhibition Prostate (0.1 mg/rat/po): 9 (0.1 mg/ rat) % |
| CC1(C)C(=O)N(c2ccc(C#N)c(C(F)(F)F)c2)C(=O)N1Cc1ccc(-c2ccncc2)cc1 [EM-9199] | 79% | 86% | 52% | – |
| Cc1c(N2C(=O)C(C)(C)N(CCCOc3ccc(-c4ccncc4)cn3)C2=S)ccc(C#N)c1Cl [EM-8815] | – | – | – | CX + DHT Antagonistic activity % Inhibition Bulbo (0.2 mg/rat po): −126 (0.2 mg/rat) %; CX + DHT Antagonistic activity % Inhibition SV (0.2 mg/rat po): −24 (0.2 mg/rat) %; CX + DHT Antagonistic activity % Inhibition Prostate (0.2 mg/rat po): 8 (0.2 mg/rat) % |
| Cc1c(N2C(=O)C(C)(C)N(CCCOc3ccc(-c4ccncc4)nc3)C2=S)ccc(C#N)c1Cl [EM-8827] | – | – | – | CX + DHT Antagonistic activity % Inhibition Bulbo (0.1 mg/rat po): −108 (0.1 mg/rat) %; CX + DHT Antagonistic activity % Inhibition SV (0.1 mg/rat po): 1 (0.1 mg/rat) %; CX + DHT Antagonistic activity % Inhibition Prostate (0.1 mg/rat/po): 3 (0.1 mg/rat) % |
| Cc1c(N2C(=O)N(CCOc3ccc(-c4cc[n+]([O-])cc4)cc3)C(C)(C)C2=O)ccc(C#N)c1Cl [EM-9339] | – | – | – | CX + DHT Antagonistic activity % Inhibition Bulbo (0.1 mg/rat po): −11 (0.1 mg/rat) %; CX + DHT Antagonistic activity % Inhibition SV (0.1 mg/rat po): 30 (0.1 mg/rat) %; CX + DHT Antagonistic activity % Inhibition Prostate (0.1 mg/rat/po): 30 (0.1 mg/rat) % |

| SMILES | CX + DHT Antagonistic activity % Inhibition Bulbo (0.5 mg/rat/po) | CX + DHT Antagonistic activity % Inhibition SV (0.5 mg/rat/po) | CX + DHT Antagonistic activity % Inhibition Prostate (0.5 mg/rat/po) | also measured |
| --- | --- | --- | --- | --- |
| Cc1c(N2C(=O)N(CCCOc3ccc(-c4cc[n+]([O-])cc4)c(C(F)(F)F)c3)C(C)(C)C2=O)ccc(C#N)c1Cl [EM-9334] | – | – | – | CX + DHT Antagonistic activity % Inhibition Bulbo (0.1 mg/rat po): −21 (0.1 mg/rat) %; CX + DHT Antagonistic activity % Inhibition SV (0.1 mg/rat po): 33 (0.1 mg/rat) %; CX + DHT Antagonistic activity % Inhibition Prostate (0.1 mg/rat/po): 33 (0.1 mg/rat) % |
| Cc1c(N2C(=O)N(CCCOc3ccc(-c4cc[n+]([O-])cc4)c(Cl)c3)C(C)(C)C2=O)ccc(C#N)c1Cl [EM-9291] | −45% | 56% | 42% | – |
| CC1(C)C(=O)N(c2ccc(C#N)c(C(F)(F)F)c2)C(=O)N1CCCOc1ccc(-c2ccncc2)c(F)c1 [EM-9066] | 64 ± 15 (n = 2) % | 90 ± 1 (n = 2) % | 50 ± 1 (n = 2) % | – |
| CC1(C)C(=O)N(c2ccc(C#N)c(C(F)(F)F)c2)C(=O)N1Cc1ccc(-c2ccncc2)c(F)c1 [EM-9227] | 84% | 93% | 61% | – |
| CC1(C)C(=O)N(c2ccc(C#N)c(C(F)(F)F)c2)C(=S)N1CCCOc1ccc2ncccc2c1 [EM-8990] | 56% | 62% | 37% | – |
| N#Cc1ccc(N2C(=O)N(CCCOc3ccc(-c4ccncc4)c(F)c3)C3(CCCC3)C2=O)cc1Cl [EM-9201] | 29% | 48% | 10% | – |
| Cc1c(N2C(=O)N(CCOc3ccc(-c4ccncc4)cc3)C(C)(C)C2=O)ccc(C#N)c1Cl [EM-9337] | – | – | – | CX + DHT Antagonistic activity % Inhibition Bulbo (0.1 mg/rat po): 3 (0.1 mg/rat) %; CX + DHT Antagonistic activity % Inhibition SV (0.1 mg/rat po): 36 (0.1 mg/rat) %; CX + DHT Antagonistic activity % Inhibition Prostate (0.1 mg/rat/po): 35 (0.1 mg/rat) % |
| Cc1c(N2C(=O)C(C)(C)N(CCCOc3ccc(-c4ccncc4)c(F)c3)C2=S)ccc(C#N)c1C(F)(F)F [EM-8797] | −94% | −90% | 28% | – |
| Cc1c(N2C(=O)N(CCCOc3ccc(-c4ccncc4)c(C(F)(F)F)c3)C(C)(C)C2=O)ccc(C#N)c1Cl [EM-9333] | – | – | – | CX + DHT Antagonistic activity % Inhibition Bulbo (0.1 mg/rat po): −17 ± 2 (n = 3, 0.1 mg/rat) %; CX + DHT Antagonistic activity % Inhibition SV (0.1 mg/rat po): 32 ± 3 (n = 3, 0.1 mg/rat) %; CX + DHT Antagonistic activity % Inhibition Prostate (0.1 mg/rat/po): 29 ± 9 (n = 3, 0.1 mg/rat) % |
| CC1(C)C(=O)N(c2ccc(C#N)c(Cl)c2)C(=O)N1CCCOc1ccc(-c2cc[n+]([O-])cc2)cc1 [EM-9118] | 83 ± 7 (n = 2) % | 90 ± 1 (n = 2) % | 58 ± 3 (n = 2) % | – |
| CC1(C)C(=O)N(c2ccc(C#N)c(Cl)c2)C(=O)N1CCCOc1ccc(-c2cc[n+]([O-])cc2)cc1F [EM-9226] | 73% | 87% | 54% | – |
| CC1(C)C(=O)N(c2ccc(C#N)c(Cl)c2)C(=S)N1CCCOc1ccc(-c2cc[n+]([O-])cc2)cc1 [EM-9120] | – | – | – | CX + DHT Antagonistic activity % Inhibition Bulbo (0.2 mg/rat po): 76 (0.2 mg/rat) %; CX + DHT Antagonistic activity % Inhibition SV (0.2 mg/rat po): 82 (0.2 mg/rat) %; CX + DHT Antagonistic activity % Inhibition Prostate (0.2 mg/rat po): 48 (0.2 mg/rat) % |
| CC1(C)C(=O)N(c2ccc(C#N)c(Cl)c2)C(=O)N1CCCOc1ccc(-c2cc[n+]([O-])cc2)cc1Cl.Cl [EM-9288] | – | – | – | CX + DHT Antagonistic activity % Inhibition Bulbo (0.3 mg/rat po): 80 (0.3 mg/rat) %; CX + DHT Antagonistic activity % Inhibition SV (0.3 mg/rat po): 101 (0.3 mg/rat) %; CX + DHT Antagonistic activity % Inhibition Prostate (0.3 mg/rat po): 50 (0.3 mg/rat) % |
| Cc1c(N2C(=O)N(CCCOc3ccc(-c4cc[n+]([O-])cc4)cc3Cl)C(C)(C)C2=O)ccc(C#N)c1Cl [EM-9252] | −101% | 35% | 40% | – |
| CC1(C)C(=O)N(c2ccc(C#N)c(C(F)(F)F)c2)C(=S)N1CCCOc1ccc(-c2ccncc2)c(C(F)(F)F)c1 [EM-8890] | 25% | 86% | 50% | – |
